From ChEMBL document CHEMBL1125325, “Orally active, nonpeptide oxytocin antagonists” (J Med Chem, 1992)

Target: T1, Oxytocin receptor (Rattus norvegicus, UniProt P70536)
T1 sequence (P70536 whole entry): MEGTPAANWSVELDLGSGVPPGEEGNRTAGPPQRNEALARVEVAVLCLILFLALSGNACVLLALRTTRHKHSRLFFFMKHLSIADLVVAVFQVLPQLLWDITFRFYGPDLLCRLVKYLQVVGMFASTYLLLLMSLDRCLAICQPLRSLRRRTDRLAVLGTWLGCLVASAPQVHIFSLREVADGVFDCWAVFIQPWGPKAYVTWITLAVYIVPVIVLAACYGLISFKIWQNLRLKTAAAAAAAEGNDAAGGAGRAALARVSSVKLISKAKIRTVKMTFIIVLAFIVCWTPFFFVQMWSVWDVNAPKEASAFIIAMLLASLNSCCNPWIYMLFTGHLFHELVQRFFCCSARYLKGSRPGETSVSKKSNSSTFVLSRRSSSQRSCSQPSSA
Assay: Half-maximal inhibition of binding of [3H]oxytocin to OT receptor in rat uterine tissue
In short: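 Competition binding on rat uterine tissue, with [3H]OT as radioligand. IC50 is the compound concentration, in μM, giving half-maximal inhibition of [3H]OT binding. Method follows an earlier report.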

IC50: 4 µM
SMILES: Cc1ccc(S(=O)(=O)N2CCC3(C=Cc4ccccc43)CC2)cc1
